# Ab-14 light chain CDR variants: yeast mating affinities

Target: peptide PDVDLGDISGINAS, taken from heptad repeat 2 (HR2) of SARS-CoV-2 spike.

Ab-14 is the parent antibody, in scFv form: VH, then a (GGGGS)3 linker, then VL. The heavy chain is unchanged in all variants.
VH: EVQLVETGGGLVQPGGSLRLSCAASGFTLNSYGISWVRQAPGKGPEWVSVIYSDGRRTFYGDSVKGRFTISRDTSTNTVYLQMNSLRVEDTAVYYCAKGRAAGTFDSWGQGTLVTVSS
VL: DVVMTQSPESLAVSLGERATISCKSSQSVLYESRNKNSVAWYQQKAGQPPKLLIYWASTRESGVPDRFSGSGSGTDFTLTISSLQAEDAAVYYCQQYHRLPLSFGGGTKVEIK

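The parent was found by panning a naive human phage display library on the peptide. In library AAYL50, one, two or three CDR residues were substituted; doubles and triples were drawn at random. The scFvs were displayed on barcoded MATa yeast, the peptide on MATalpha yeast. Binding brings cells together so that they mate, and sequencing counts the barcode pairs among the diploids. Scores were corrected for input abundance and mapped to Kd with protein pairs of known affinity run in the same pool. There are three technical replicates.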

Each variant is given by its three light chain CDRs, as the data file delimits them; those of the parent are KSSQSVLYESRNKNSVA, WASTRES, QQYHRLPLS.
Affinities are written as log10 Kd with Kd in nM; a lower number is a better binder.
"nd" marks a missing value. The strain was present, yet no cells mated with the target were sequenced in that replicate, which points to weak or no binding.
Nonspecific signal, from three strains lacking the peptide, appeared in 18% of pairings of library AAYL50, centred on 4.19 (5% of these signals below 2.99); values are not corrected for it. Also given: how often the same scFv was detected with the empty control strains, with their mean in brackets.

CDR-L1	CDR-L2	CDR-L3	log10 Kd, replicates	control signals
KSSLSVLYESRNKNSCA	WASTRES	QMYHRLPLS	nd nd nd	1 of 9 (3.30)
KSSQQVLYESRNMNSVA	WASTREV	QQYHRLPLS	0.88 1.02 0.99	0 of 9
KSSQSVWYESRNKDSVA	WRSTRES	QQYHRLPLS	nd nd 3.25	0 of 9
KSSQSVTYESRNKNSVA	WASTRKV	QQYHRLPLS	3.66 2.32 2.85	1 of 9 (4.99)
KSIQSVLYESRNKNSVQ	WASTRES	QQYHRLPLS	nd 4.22 nd	3 of 9 (4.01)
KSSQSVLYESRNKNSVA	FASTRCS	QQYARLPLS	1.13 1.33 1.28	4 of 9 (4.30)
KSSQSVLYESRNKNSAA	IASTRES	QQYFRLPLS	nd nd nd	0 of 9
KSSQSVLYESRNKNSVA	WASERKY	QQYHRLPLS	2.83 2.14 2.68	0 of 9
KSSQVVLYESRNKDSVA	WASTEES	QQYHRLPLS	nd nd nd	2 of 9 (3.27)
KSSQSVLYSSRNKRMVA	WASTRES	QQYHRLPLS	nd nd 5.05	4 of 9 (4.31)
KSSESVLYESRNKNSVA	WASTRES	QQYHHLHLS	nd nd nd	0 of 9
FSSQSVYYESRNKNSVA	WASTREY	QQYHRLPLS	1.37 1.40 1.52	0 of 9
KSSQSVLYESMNKNSVA	WHSTKES	QQYHRLPLS	nd nd nd	1 of 9 (3.48)
TSSQSVAYESRNKNSVA	WASTRES	QQYHRLPLS	2.22 2.06 2.20	2 of 9 (3.78)
KSSQSVLYESRNINSGA	WASTRES	QQAHRLPLS	nd nd nd	2 of 9 (4.14)
KSSQSVLYESRNKNSVA	WASTREF	QQYHRPPLL	nd nd nd	0 of 9
KSSQSVLYVSRNKNSVP	WASTRES	QQYNRLPLS	4.68 4.06 5.97	3 of 9 (4.47)
KSSQSVLYESRNKNVVA	WASHRES	QQYHRDPLS	1.12 1.03 1.32	0 of 9
KSSQSVLYESRFCNSVA	WASTRHS	QQYHRLPLS	3.13 4.21 nd	1 of 9 (3.02)
KSSQSVLYESREIHSVA	WASTRES	QQYHRLPLS	1.28 1.43 1.78	3 of 9 (3.81)
KSHQSVLYESRNCNSVA	WASTRES	QQYHLLPLS	1.06 1.44 1.38	0 of 9
KSSQSVFYFSRNKWSVA	WASTRES	QQYHRLPLS	3.01 2.44 2.84	4 of 9 (4.52)
QSSQSVLYEPNNKNSVA	WASTRES	QQYHRLPLS	0.51 0.76 0.68	5 of 9 (4.64)
KSIQSVLYESRNKNSGA	WASTRES	QQYHRLPCS	nd nd nd	0 of 9
KSSQNVLYESRNKNSVA	WASTPES	QQYHALPLS	nd nd nd	1 of 9 (2.99)
VSSQSKLYESRNKNSVA	WASTRES	QQYHRLFLS	2.61 nd nd	0 of 9
KSSQSFLYESRNKNSVA	WASTRES	QQYPVLPLS	0.56 0.66 0.85	1 of 9 (5.79)
KSSQSVLYETRNKNSVA	WASTCES	QEYHRLPLS	3.75 2.90 4.10	2 of 9 (3.76)
KSSQSVLYESRNKNSVA	WNSTRAS	QQYRRLPLS	3.01 4.02 3.69	1 of 9 (4.46)
KHSQSVLYESRNKNSVA	WASTIES	QQYHRLPLG	4.17 4.32 nd	3 of 9 (4.96)
KSSQSVLYESRNKNSVI	WASTNES	QQYHRLPLS	nd nd nd	1 of 9 (2.77)
KSSQSTLYESRNKNSVA	WAWTRES	QQYHRLPLS	6.45 nd nd	3 of 9 (4.66)
KSSQSVLYESRNKNSVA	WASTRET	QQYHRTFLS	nd nd 4.48	3 of 9 (3.84)
KDSQSVLYESFNKNSVA	WASTRES	QQYHRLPLS	2.69 2.43 2.68	1 of 9 (4.24)
KSSQHVLYESRNKNSVA	WASTRES	QQSHRQPLS	1.29 1.20 1.33	5 of 9 (4.00)
KSSQSVLYEDRFKNSVA	WASTRES	QQYHRYPLS	1.22 1.23 1.54	2 of 9 (3.99)
KSSQSVLYISRNKNSVA	VASTRES	QQYRRLPLS	nd nd nd	0 of 9
KSSQSVLYESRNSNSVA	WASTRES	QQYVRLPNS	1.02 1.37 1.22	3 of 9 (3.35)
KSSQSVLYESRNKNSQA	WNSTRES	QQYHRLPLS	nd 5.01 4.70	2 of 9 (4.38)
KSSQSVLYCSRNKNSVA	EDSTRES	QQYHRLPLS	1.53 1.79 1.89	1 of 9 (5.06)
KSSSSVHYESRNKNSVA	WASTREK	QQYHRLPLS	4.11 nd nd	3 of 9 (3.40)
KSSQSVLYESRNKNSVA	WASTYES	QTYHRLPLG	nd nd nd	1 of 9 (3.83)
KSSQSVLYESRNKNSVA	SASTREF	TQYHRLPLS	2.83 nd nd	1 of 9 (2.90)
KSSQSVLYESRNKNQVA	WASTREW	QQYHTLPLS	2.55 2.41 2.75	8 of 9 (4.17)
KSSQRVLPESRNKNSVA	WASTRES	QQYTRLPLS	2.81 3.09 2.74	1 of 9 (4.12)
KSSQSVLYWSRNKNSVA	WASTYES	QQYHDLPLS	nd nd nd	0 of 9
KSSQSVLYESRQKNAVA	WVSTRES	QQYHRLPLS	1.46 1.16 1.28	1 of 9 (2.55)
KSSQSVLYESRNKYSVA	WASTRNQ	QQYHRLPLS	0.93 0.96 1.05	5 of 9 (4.99)
KSSQSVAYECRNKNSVA	WASTPES	QQYHRLPLS	4.51 4.21 4.47	2 of 9 (4.35)

Picked from the list: the 4 lowest averages where every replicate gave a value.

CDR-L1,CDR-L2,CDR-L3,"log10 Kd, replicates",control signals
QSSQSVLYEPNNKNSVA,WASTRES,QQYHRLPLS,0.51 0.76 0.68,5 of 9 (4.64)
KSSQSFLYESRNKNSVA,WASTRES,QQYPVLPLS,0.56 0.66 0.85,1 of 9 (5.79)
KSSQQVLYESRNMNSVA,WASTREV,QQYHRLPLS,0.88 1.02 0.99,0 of 9
KSSQSVLYESRNKYSVA,WASTRNQ,QQYHRLPLS,0.93 0.96 1.05,5 of 9 (4.99)

Parent in this assay: reference entry 0.65, copy in this library 1.68.

Values reported by Engelhart et al. 2022, doi:10.1038/s41597-022-01779-4 (FLAb copy).